Assay outcomes (PubChem)
miR-21 reporter: raises the signal of a miR-21 reporter | HeLa miR-21 FLuc reporter, luciferase, 48 h | Potency, µM (doses to about 38.3 µM), for the others: at the highest dose reporter change, positive = more light | 340,000 tested, under 10 active | AID 2288; active = well fitted rising curve with a large enough effect; inconclusive = small, poorly fitted or top-dose-only effect; inactive = no such curve, though single readings can be large or run the other way;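 also: % of control where 0% means no effect; miR-21 action dims this reporter so a rising signal means less miR-21 action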
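Compounds were titrated across several concentrations (up to approximately 40 uM) and incubated 48 hours with HeLa miR-21-FLuc reporter cells (miR-21 target sequence downstream of FLuc, endogenous miR-21). Readout was firefly luciferase luminescence after lytic detection reagent.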
TDP1 inh: inhibitors of human tyrosyl-DNA phosphodiesterase TDP1; Q9NUW8; recombinant TDP1, AlphaScreen DNA substrate cleavage; Potency, µM (titrated, usually from 130 µM), inactives show top-dose activity change, negative = inhibition, actives largely listed as inhibitors; 350,000 compounds, 0.28% hits; AID 485290; note: potency is the fitted concentration of half-maximal effect; % is set by controls: 0 for no effect and ±100 for the full control effect; nearly all actives have a fitted effect of over 40% in size
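E. coli-derived human Tdp1, 1 nM final. Cpd preinc 15 min RT; substrate 15 nM final, 5 min RT; AS bead mix 10 ug/ml final, 10 min RT. Signal loss = tyrosine-FITC cleavage. No-enzyme wells = max signal.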
uPA generation: blocks generation of uPA at the cell surface; cell surface uPA generation assay, qHTS; Potency, µM (top dose mostly 38.3 µM), inactives show at the top dose activity change, negative = inhibition, actives largely listed as inhibitors; 330,000 compounds, 0.31% hits; active = well fitted inhibition curve with a large enough effect; inconclusive = small, poorly fitted or top-dose-only effect; inactive = no such curve, though single readings can be large or run the other way; tested in mouse RAW 264.7 cells; note: potency is the fitted concentration of half-maximal effect; % is set by controls: 0 for no effect and ±100 for the full control effect; nearly all actives have a fitted effect of over 55% in size
TDP1 cell noCPT: qHTS for Inhibitors of human tyrosyl-DNA phosphodiesterase 1 (TDP1): qHTS in cells in absence of CPT; DT40 Tdp1-/- hTDP1 cells, no CPT, ATP luminescence, 48 h; Potency, µM (highest dose often 46.2 µM), for inactives: at the highest dose activity change, negative = growth inhibition, actives largely listed as inhibitors; 420,000 compounds, 15% hits; AID 686978, 2013; note: potency is the fitted concentration of half-maximal effect; % is set by controls: 0 for no effect and ±100 for the full control effect; nearly all actives have a fitted effect of over 55% in size
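Stably hTDP1-transfected Tdp1-null chicken DT40 cells were treated with library compounds minus camptothecin and grown for at least 48 hr at 37 °C, after which cellular ATP was quantified by luminescence.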
TDP1 cell CPT: DT40-hTDP1 cell growth loss with CPT | chicken DT40 Tdp1-/-;hTDP1 cells + 20 nM CPT, ATP luminescence, 48 h | Potency, µM (series often up to 46.2 µM), without a hit: top-dose activity change, negative = growth inhibition, most hits filed as inhibitors | 420,000 compounds, 12% hits; note: potency is the fitted concentration of half-maximal effect; % is set by controls: 0 for no effect and ±100 for the full control effect; nearly all actives have a fitted effect of over 55% in size
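Chicken DT40 Tdp1-/- cells stably complemented with human TDP1 were seeded at 400 cells/well in medium containing 20 nM camptothecin, exposed to pin-transferred compounds, and grown at 37 °C for at least 48 hr. Viability was read as ATP luminescence.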
The depositor's hits bear a star. A selection: hits, their analogues and other compounds. The true share with any hit is near 16%. Unless noted, calls come from the whole dose curve; as a rule, active = well fitted curve in the direction sought with a large enough effect; inconclusive = small, poorly fitted or top-dose-only effect, or another doubt; inactive = no such curve, though single readings can be large; an effect the other way counts as inactive or inconclusive.

CCOC(=O)[C@]12CCC=C1N(Cc1ccccc1)C(=O)[C@H](CC(=O)NCCCN1CCCC1=O)C2 was read as TDP1 cell noCPT 1% and TDP1 cell CPT -10%.
CCOC(=O)[C@]12CCC=C1N(Cc1ccco1)C(=O)[C@H](CC(=O)NCCC(C)C)C2 was read as TDP1 cell noCPT -27% and TDP1 cell CPT -1%.
CCOC(=O)[C@]12CCC=C1N(Cc1ccccc1)C(=O)[C@H](CC(=O)NCc1cccs1)C2 was read as TDP1 cell noCPT 23µM* and TDP1 cell CPT inconclusive.
O=C(/C=C/c1ccccc1)OCc1cnc(Cl)s1 was read as miR-21 reporter -18%, TDP1 inh -6%, uPA generation 13%, TDP1 cell noCPT 1% and TDP1 cell CPT -3%.
For CCOC(=O)[C@]12CCCC=C1N(Cc1ccco1)C(=O)[C@H](CC(=O)NCCC(C)C)C2 the results were TDP1 cell noCPT 16µM* and TDP1 cell CPT inconclusive.
Screening OC(c1ccc2c(c1)OCO2)c1ncc(-c2ccccc2)[nH]1 (stereo not given) returned TDP1 cell noCPT -14% and TDP1 cell CPT -8%.
COC(CNC(=O)C1CCCN(S(=O)(=O)c2ccc3c(c2)oc(=O)n3C)C1)OC (stereo not given) was read as miR-21 reporter -1%, TDP1 inh 1%, uPA generation -1%, TDP1 cell noCPT 12% and TDP1 cell CPT 10%.
For CC1CN(C(=S)NC(=O)c2ccc(Cl)cc2)CC(C)O1 (stereo not given) the results were miR-21 reporter -4%, TDP1 inh 3%, uPA generation 1%, TDP1 cell noCPT inconclusive and TDP1 cell CPT inconclusive.
CC1CN(C(=S)SCC(=O)c2ccc(Cl)cc2)CC(C)O1 (stereo not given) was read as miR-21 reporter -26%, TDP1 inh 3%, uPA generation 1%, TDP1 cell noCPT 2.6µM* and TDP1 cell CPT 4.1µM*.
Screening Cc1cc(Cn2nc(C(=O)NCc3cccc(C(F)(F)F)c3)cc2-c2ccccc2)on1 returned TDP1 inh -4%, uPA generation 16%, TDP1 cell noCPT inconclusive and TDP1 cell CPT inconclusive.
Screening Cc1ccc(CNC(=O)c2cc(-c3ccccc3)n(Cc3cc(C)no3)n2)cc1 returned TDP1 inh 2%, uPA generation 22%, TDP1 cell noCPT inconclusive and TDP1 cell CPT 21µM*.
Screening CC(C)c1cc(-c2nc(-c3cccc(Cl)c3)no2)n[nH]1 returned miR-21 reporter -39%, TDP1 inh -3%, TDP1 cell noCPT inconclusive and TDP1 cell CPT inconclusive.
`CCc1nc2ccc(C(=O)NCc3ccccc3OC)cn2c1N(C)Cc1ccc(N(C)C)cc1` gave TDP1 cell noCPT 21µM* and TDP1 cell CPT 21µM*.
`COc1ccc(OCCNC(=O)c2ccc3nc(C)c(N(C)Cc4ccc(NC(C)=O)cc4)n3c2)cc1` gave TDP1 cell noCPT 16µM* and TDP1 cell CPT 16µM*.
Screening CCc1nc2ccc(C(=O)NCCOc3ccc(OC)cc3)cn2c1N(CC)Cc1ccc(OC)c(OC)c1 returned TDP1 cell noCPT 21µM* and TDP1 cell CPT 21µM*.
`CCc1nc2ccc(C(=O)NCCOc3ccc(OC)cc3)cn2c1N(C)Cc1nccn1C` gave TDP1 cell noCPT -14% and TDP1 cell CPT -28%.
For CCc1nc2ccc(C(=O)NCCOc3ccc(OC)cc3)cn2c1N(C)Cc1ccc(N(C)C)cc1 the results were TDP1 cell noCPT inconclusive and TDP1 cell CPT 23µM*.
`CC(C)N(C(=O)CSc1nnc(-c2ccc3c(c2)OCO3)n1C)C(C)C` gave miR-21 reporter -1%, TDP1 inh 1%, uPA generation 3%, TDP1 cell noCPT -3% and TDP1 cell CPT -3%.
For Cc1ccc(/C=C2\SC(=S)N(CCC(=O)Nc3cccnc3)C2=O)cc1 the results were miR-21 reporter -1%, TDP1 inh 4%, uPA generation 16%, TDP1 cell noCPT -27% and TDP1 cell CPT -15%.

Pulled by compound from the entries so far (three):
For Cc1ccc(/C=C2\SC(=S)N(CCC(=O)Nc3cccnc3)C2=O)cc1 the results were miR-21 reporter -1%, TDP1 inh 4%, uPA generation 16%, TDP1 cell noCPT -27% and TDP1 cell CPT -15%.
`CC(C)N(C(=O)CSc1nnc(-c2ccc3c(c2)OCO3)n1C)C(C)C` gave miR-21 reporter -1%, TDP1 inh 1%, uPA generation 3%, TDP1 cell noCPT -3% and TDP1 cell CPT -3%.
`CCc1nc2ccc(C(=O)NCCOc3ccc(OC)cc3)cn2c1N(C)Cc1nccn1C` gave TDP1 cell noCPT -14% and TDP1 cell CPT -28%.
